Experimental findings from BindingDB's records for doi:10.1016/j.bmcl.2004.12.068 (Pharmacor, 2005) are described below.

This experiment concerns the target T1, Dimer of Gag-Pol polyprotein [501-599] (Human immunodeficiency virus 1, UniProt P03367).
T1 construct: 501-599
Briefly: Protease Inhibition Assay. Particulars: pH 4.7; 30 °C.

Molecule `Cc1ccc(S(=O)(=O)N(CC(C)C)[C@H](CCCCNC(=O)OCC2c3ccccc3-c3ccccc32)C(=O)O)cc1` [(2R)-6-{[(9H-fluoren-9-ylmethoxy)carbonyl]amino}-2-[(4-methylbenzene)(2-methylpropyl)sulfonamido]hexanoic acid] returned an inhibitory constant (Ki) of 0.33 µM.
`CC(C)(C)OC(=O)NCCCC[C@H](NC(=O)OCC1c2ccccc2-c2ccccc21)C(=O)O` [(2S)-6-{[(tert-butoxy)carbonyl]amino}-2-{[(9H-fluoren-9-ylmethoxy)carbonyl]amino}hexanoic acid] returned a Ki of 28 µM.

A word on the Ki: it is a dissociation constant, usually derived from enzyme kinetics or from competition with a known ligand. A lower Ki goes with higher affinity.
